Earlier results as cited in publication PMC10642921.

Target: calcineurin (UniProt Q08209)

calmodulin (from UniProt P0DP23)
Kd: 0.028 nM
